According to patent US20160243223A1, “METHODS FOR TREATING CANCERS COMPRISING K-RAS MUTATIONS” (OncoMed Pharmaceuticals, Inc., priority 2009, published 2016):

Assays:
[1] = test system: C8 colon tumor; assay: C8 colon tumor xenograft model (K-ras wild-type)
[2] = test system: C40 colon tumor; assay: C40 colon tumor xenograft model (K-ras wild-type)

## cetuximab [Anti-EGFR]
[1]; C8, K-ras WT, antibodies 10 mg/kg once a week, irinotecan […] twice per week, intraperitoneally, mean +/- SEM
  Tumor Volume Reduction, % of Control Ab: 47 ± 9 % of Control Ab
[1]; C8, wild-type K-ras tumor, FIGS. 1A, 1H, 2A
  effect on tumor growth (in words): inhibited tumor growth
[2]; C40, K-ras WT, antibodies 10 mg/kg once a week, irinotecan […] twice per week, intraperitoneally, mean +/- SEM
  Tumor Volume Reduction, % of Control Ab: 54 ± 8 % of Control Ab
[2]; C40, wild-type K-ras tumor, FIGS. 1B, 2B
  effect on tumor growth (in words): inhibited tumor growth
